Where a name gives a salt, the structure may show the parent alone. The list shows a part of the results, in another mix than the full data.

The assay relates to Danio rerio larvae Tg(actc1b:ZsGreen-LC3), 3 dpf. The assay is described as follows: LC3 puncta relative area vs vehicle, with NH4Cl (autophagic flux) (log2 fold change); higher = more autophagy. The settings on record: 10 µM; treatment time 16 h; NH4Cl: + 100 mM, 4 h. The procedure:
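Transgenic Tg(actc1b:ZsGreen-map1lc3) zebrafish larvae (2 dpf) were treated for 16 h with Tocris library compounds at 10 µM (n = 12 larvae per compound). Skeletal-muscle LC3 puncta area relative to body area was measured by high-content confocal imaging before and after 4 h of 100 mM NH4Cl (autophagic flux), normalised to vehicle (DMSO), and reported as log2 fold change.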
In the case of `N/C(=N/CCc1ccc(I)cc1)SCCCc1cnc[nH]1` [Iodophenpropit dihydrobromide], the “LC3 puncta (log2)” value worked out at 0.934.

These data come from the supplement of paper PMC12532568.
